Measurements from US20040110803A1, “Methods and compositions for the use of D-malic acid to decrease serum triglyceride, cholesterol and lipoprotein levels” (priority 2002, published 2004).
Where a name gives a salt, the structure may show the parent alone. Read-outs that look alike come from different tables or passages of the source.

Experiments:
[1] = test system: liver of Zucker fa/fa rat
liver mitochondria = conditions: oxygen consumption, FIG. 5
Procedure: To determine the effect of D-malic acid on hepatic mitochondria, mitochondria from the Sprague Dawley rat used for isoenzyme studies were prepared according to the method of Johnson and Lardy (1967). The […] pellet was resuspended in cold sucrose buffer and recentrifuged at 600×g. This supernatant was mixed with the original 600×g supernatant. The 10,000×g mitochondria pellet was suspended in 5 mL of sucrose buffer. […] Consumption of oxygen was represented as percent of oxygen saturation.

SMILES	AT/DMado, ratio of tissue levels of ATP/ADP + AMP + Adenosine ([1]; 12 weeks treatment, ± SEM)	energy status of hepatocytes (ratio of high to low energy nucleotides) vs control ([1]; rat, in vivo)	concentration at which metabolism by mitochondria saturates (liver mitochondria)	concentration at which metabolism by mitochondria saturates (liver mitochondria; converted)
O=C(O)CC(O)C(=O)O (racemic) [D,L-malic acid, D,L-malic acid, sodium salt]	1.61 ± .18	greater	–	–
O=C(O)C[C@H](O)C(=O)O [L-malic acid, L-malic acid, sodium salt, reference compound]	–	–	30 umole/5 mL	6 mM
